Earlier results, collected in US20030045478A1, “Gamma-ketoacid dipeptide derivatives as inhibitors of caspase-3” (priority 2000, published 2003).

How the values were obtained:
caspase-1 = target: T1, caspase-1 (Homo sapiens, UniProt P29466)
T1 sequence (P29466 120-297 limits assumed): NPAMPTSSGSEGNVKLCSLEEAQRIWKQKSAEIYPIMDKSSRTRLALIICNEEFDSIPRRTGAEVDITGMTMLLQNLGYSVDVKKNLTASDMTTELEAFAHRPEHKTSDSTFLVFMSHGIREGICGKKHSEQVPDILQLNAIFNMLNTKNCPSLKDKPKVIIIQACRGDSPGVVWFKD
T1 sequence (P29466 317-404 limits assumed): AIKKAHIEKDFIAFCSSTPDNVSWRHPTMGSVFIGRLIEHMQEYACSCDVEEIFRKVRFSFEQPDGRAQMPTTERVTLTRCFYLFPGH

caspase-3 = target: T2, caspase-3 (Homo sapiens, UniProt P42574)
T2 sequence (P42574 29-175 limits assumed): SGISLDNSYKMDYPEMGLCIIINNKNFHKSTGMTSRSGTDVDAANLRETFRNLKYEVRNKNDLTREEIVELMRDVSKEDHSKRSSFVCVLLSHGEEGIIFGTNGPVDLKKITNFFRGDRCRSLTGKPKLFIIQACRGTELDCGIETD
T2 sequence (P42574 176-277 limits assumed): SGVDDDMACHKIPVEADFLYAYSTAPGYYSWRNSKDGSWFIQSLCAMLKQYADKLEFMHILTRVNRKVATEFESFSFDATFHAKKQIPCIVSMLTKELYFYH

inhibition of caspase-1 (in words) (caspase-1): weaker but reasonable inhibitor
Ki (caspase-3): < 1 nM
Substance: Ac-DEVD-CHO
